Data from patent US9233167B2, “Oligomer-opioid agonist conjugates” (NEKTAR THERAPEUTICS, priority 2007, dated 2016).

Amino acid sequences for entries named in this document (tags omitted).
UniProt P41143, whole entry, looked up: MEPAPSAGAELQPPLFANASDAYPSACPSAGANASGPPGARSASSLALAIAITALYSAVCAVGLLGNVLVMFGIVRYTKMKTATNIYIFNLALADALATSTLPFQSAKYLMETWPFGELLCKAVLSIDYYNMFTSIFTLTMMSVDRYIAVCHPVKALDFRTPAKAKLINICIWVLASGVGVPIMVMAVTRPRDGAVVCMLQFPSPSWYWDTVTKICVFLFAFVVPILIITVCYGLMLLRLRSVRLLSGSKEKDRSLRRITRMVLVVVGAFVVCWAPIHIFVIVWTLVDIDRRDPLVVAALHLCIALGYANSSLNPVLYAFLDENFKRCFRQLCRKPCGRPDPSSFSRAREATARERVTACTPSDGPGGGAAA

Assays:
[1] = target: recombinant human delta opioid receptor (Homo sapiens (Human), UniProt P41143); details: GTP-γS binding, up to 10 μM
[2] = Intravenous pharmacokinetics in Sprague-Dawley rats; details: IV 1 mg/kg

| Substance | effect at the delta opioid receptor [1] | mean t1/2 value as multiple of that of the parent molecule [2] |
| --- | --- | --- |
| 6-O-mPEG9-nalbuphine | weak antagonistic | – |
| α-6-mPEG6-O-codeine | – | approximately 2.5 times |
